Laboratory results: paper PMC7774954, “Interactomic affinity profiling by holdup assay: Acetylation and distal residues impact the PDZome-binding specificity of PTEN phosphatase” (PLoS ONE, 2020)

Legend:
[1] = target: fpRSK1, fluorescein-labelled phosphorylated RSK1 PBM peptide; experiment: fluorescence polarisation; direct: N-terminally fluorescein-labelled PBM peptide (tracer) with increasing amounts of MBP-PDZ; 384-well plates; triplicate; direct binding model (ProFit)
[2] = target: fRSK1, fluorescein-labelled RSK1 PBM peptide; experiment: as above

Kd [1] [µM]	Kd [2] [µM]	Substance
10.1	–	SNX27-1, PDZ domain of SNX27 (from UniProt Q96L92 1-541) (domain or fragment)
–	19.9	GOPC-1, PDZ domain of GOPC (from UniProt Q9HD26 1-462) (domain or fragment)
